Earlier results on 1 substance are cited in US20130202594A1, “ALK1 Antagonists and Their Uses in Treating Renal Cell Carcinoma” (priority 2012, published 2013).

The subject of the data set is RCC. Conditions: high-dose intravenous; cited from earlier work.

In the case of IL-2: immunostimulatory cytokine, the complete remission rate is reported as 6-8%, the cure rate result is listed as “approximately 5%” and the response rate was 15-20%.
